According to patent publication US20170198196A1, “METHODS FOR CONTROLLING SOURING IN ENGINEERED SYSTEMS” (The Regents of the University of California, priority 2014, published 2017):
pIC50: −log10 of the molar value. Like-named read-outs stand apart in the source and are kept apart here.

What was measured:
[1] = cited from earlier work
[2] = cited from earlier work; remark: listed apart in the source
[3] = test system: marine enrichment cultures
[4] = test system: sulfidogenic, mixed-species microbial communities; experiment: Inhibition of sulfate reduction in continuous sediment bioreactors by MFP dosing
[5] = test system: marine enrichment cultures; experiment: Inhibition of sulfide production (Cline assay) in marine enrichment cultures; assay type: cell-based
[6] = test system: Desulfovibrio alaskensis G20; settings: sulfite reducing G20, 36 h
[7] = test system: Azospira suillum PS; experiment: Growth of Azospira suillum PS with nitrate or perchlorate as electron acceptor in presence of MFP; settings: read-out: IC50 against growth of A. suillum PS
[8] = test system: Desulfovibrio alaskensis G20; experiment: Growth inhibition of Desulfovibrio alaskensis G20 on lactate/sulfate media (OD600)
[9] = test system: Desulfovibrio alaskensis G20 tn5::dde_2102; experiment: Growth of tn5::dde_2102 (crcB, fluoride efflux pump) mutant with MFP or fluoride; settings: 30 mM F^- or 1 mM MFP
[10] = test system: Desulfovibrio alaskensis G20; settings: read-out: IC50 of sulfate reduction; defined media, sulfate 30 mM
[11] = test system: Desulfovibrio alaskensis G20 tn5::rex mutant; experiment: Inhibition of Desulfovibrio alaskensis G20 tn5::rex mutant versus wild-type; settings: tn5::rex overproduces central sulfate reduction pathway

## calcium monofluorophosphate
[1]
  solubility constant: 30 mM

## monofluorophosphate
[2]; extremes of alkaline and acidic pH
  stability: unstable
[2]; neutral pH
  stability: stable for months
[3]; read-out: IC50 Seawater Growth, seawater adjusted to contain 2 g L^-1 yeast extract
  pIC50: 1.26
[3]; read-out: growth IC50, marine enrichment cultures, 48 h
  pIC50: < 1.00
[4]; MFP dosing at 2 mM, second dosing period
  inhibition of sulfate reduction in bioreactors: did not result in inhibition of sulfate reduction
[4]; MFP dosing at 20 mM, third dosing period, R7-9
  inhibition of sulfate reduction in bioreactors: rapid inhibition of sulfate reduction
[5]; growth versus sulfide production, marine enrichment
  fold higher concentration needed for impact on general growth of the microbial community: 70 fold
[5]; marine enrichment cultures, 48 h
  selectivity index (SI = growth IC50/sulfide IC50): 53
[5]; marine enrichment cultures, SI>2 classified as selective
  selectivity and potency as inhibitor of sulfidogenesis versus growth, in words: selective inhibitors
[5]; ratio of seawater growth IC50 to sulfide production IC50
  Growth/Sulfide Ratio: 66.52
[5]; read-out: IC50 Seawater Sulfide Production, seawater adjusted to contain 2 g L^-1 yeast extract
  pIC50: 3.08
[5]; read-out: IC50 against sulfidogenesis (95% confidence interval), marine enrichment cultures, 48 h
  pIC50: 2.72
[5]; read-out: IC50 value against undefined sulfidogenic microbial community, marine sediment enrichment with yeast extract and sulfate
  pIC50: 3.10
[6]
  potency against sulfite grown cells relative to sulfate grown cells, in words: less inhibitory to sulfite grown cells than sulfate grown cells
[7]; nitrate-reducing conditions
  pIC50: < 1.30
[7]; perchlorate-reducing conditions
  pIC50: < 1.30
[8]; FIG. 3A and 3B
  concentration inhibiting growth of Desulfovibrio alaskensis G20: below 1 mM
[8]; read-out: IC50 against growth of Desulfovibrio alaskensis G20 (95% confidence interval), wild-type, 48 h
  pIC50: 2.92
[8]; read-out: IC50 against growth of Desulfovibrio alaskensis G20, lactate and sulfate media
  pIC50: 2.91
[9]
  growth of tn5::dde_2102 strain relative to wild-type G20, in words: sensitive
[10]
  pIC50: 4.00
[11]
  response of Rex mutants relative to wild-type G20, in words: sensitive
